A selection: hits, their analogues and other compounds. The true share with any hit is near 4.2%.
MC4R antag cAMP – MC4R antagonists of cAMP signaling, primary screen, cell-based, TR-FRET, antagonist arm of biased-ligand search. Melanocortin receptor 4 (Homo sapiens), P32245. MC4R-expressing cells, MTII-stimulated cAMP, LANCE TR-FRET. inhibition, % at 6.5 µM. actives 0.48% (n = 360,000);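 active = inhibition above its plate's cutoff, the mean of tested wells on that plate plus 3 SD, cut at about 29% in these data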;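 note: 0% = Melanotan II alone and 100% = Melanotan II plus saturating MCL0020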
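System: U2OS-MC4R stable cell line; Technique: Eu-cAMP/anti-cAMP TR-FRET, emission 671 nm; Repeats: single well per compound; Also added: Melanotan II; Dosing: one concentration, 6.5 µM nominal; Schedule: 30-min compound, 1-h challenge, 1-h detection, room temperature.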
UUG fidelity – modulators of start codon recognition fidelity in yeast; S. cerevisiae UUG-firefly luciferase reporter, luminescence/redox ratio; AID 602363; 350,000 tested, 0.13% active; activity score, % at 18.7 µM;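 active = replicate mean at a twofold rise or more, about +100% in these data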;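 also: firefly luciferase made from a UUG start codon reports start codon fidelity; reporter light over untreated wells divided by growth signal over untreated wells; some hits fall short of that in this replicate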
MC4R ag barr – MC4R agonists recruiting beta-arrestin, primary screen, cell-based, luminescence, agonist arm of biased-ligand search. activation, % at 8.9 µM. U2OS MC4R beta-arrestin complementation; percent of melanotan II response, DMSO zero. actives 0.98% (n = 360,000). Melanocortin receptor 4 (Homo sapiens), P32245;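 active = activation above a per-plate cutoff, the mean activation of sample wells on that plate plus 3 SD, cut at about 8% in these data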
NALP1 yeast inh – NALP1 inflammasome inhibitors in reconstituted yeast, colorimetric, S. cerevisiae, triplicate retest | actives 0.61% (n = 280,000) | inhibition, % at 10 µM | S. cerevisiae NALP1/ASC/caspase-1 growth, X-gal OD620, 72 h | AID 2071, 2009; in the data active = inhibition mostly above about 24%, no sharp cut-off; inactive = mostly below about 32%
HDAC3 inh – HDAC3 deacetylase inhibitors, primary screen, biochemical, fluorescence, cell-free homogeneous | Histone deacetylase 3 (Homo sapiens), O15379 | recombinant HDAC3, fluorogenic peptide/trypsin coupled | inhibition, % at 8.3 µM | actives 0.15% (n = 320,000); in the data active = inhibition above about 26%, passing the limit was not always enough
ALR H2O2 inh – inhibitors of human ALR sulfhydryl oxidase, primary screen, biochemical, H2O2 detection, HRP-luminol luminescence, single point; FAD-linked sulfhydryl oxidase ALR (Homo sapiens), P55789; purified ALR, DTT oxidation; inhibition, % (test concentration not listed); 290,000 tested, 3.8% active; AID 485317, 2010;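 active = mean and each replicate at 75% or more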;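 note: stock transfer was 7.5 nL into about 7.5 µL; 0% = neutral wells and 100% = wells with inactivated enzyme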
* marks the source's active call; other numbers are inactive results; nt = not tested or not shown.

Protein sequences, listed by entry. Tags and fused reporters are not part of them.
Melanocortin receptor 4 (Homo sapiens), P32245, UniProt P32245, whole entry, looked up: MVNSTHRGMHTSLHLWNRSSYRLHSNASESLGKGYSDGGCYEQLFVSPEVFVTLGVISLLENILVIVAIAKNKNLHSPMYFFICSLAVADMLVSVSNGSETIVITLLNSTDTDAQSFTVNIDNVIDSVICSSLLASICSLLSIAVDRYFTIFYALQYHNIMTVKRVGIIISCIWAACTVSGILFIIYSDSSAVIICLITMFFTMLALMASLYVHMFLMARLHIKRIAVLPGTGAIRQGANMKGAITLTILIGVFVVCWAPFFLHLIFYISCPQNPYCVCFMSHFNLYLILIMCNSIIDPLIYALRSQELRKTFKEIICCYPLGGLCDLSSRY

entry	Molecule	MC4R ag barr	MC4R antag cAMP	NALP1 yeast inh
1	COc1cc(CNCCCN2CCOCC2)cc(Br)c1OCc1ccc(Cl)cc1	3	-5	10
2	COc1cc(CNCCCN2CCOCC2)cc(Br)c1OCC(=O)N1CCCCC1	0	12	30*
3	Cc1cc(Cl)ccc1OCC(=O)OCC(=O)NCCNC(=O)COC(=O)COc1ccc(Cl)cc1C	-1	3	nt
4	CC(=O)c1ccccc1OC(=O)COc1ccc(Cl)cc1C	nt	nt	-5
5	CN1C(=O)c2cc(NC(=O)C3CCCC3)ccc2OC[C@H]2O[C@H](CC(=O)NCC(F)(F)F)CC[C@H]21	nt	nt	nt
6	Cc1ccc(N2CCN(C3=NC(=O)C(Cc4ccccc4)S3)CC2)cc1 (stereo unspecified)	-1	13	24
7	O=C1N=C(N2CCN(c3ccccc3)CC2)SC1Cc1ccccc1 (stereo unspecified)	-1	-5	40*
8	C=CCN(CC=C)C(=S)NC(=O)c1ccc(OC)cc1	2	-4	24
9	C=CCN(CC=C)C(=S)NC(=O)c1ccc(-c2ccccc2)cc1	-4	6	39*
10	O=C(c1ccnc(Cl)c1)N1CCCC(Nc2ccc(F)cc2)C1 (stereo unspecified)	0	2	-19
11	CC(C)c1ccc(NC2CCCN(C(=O)c3cccc(N4CCNC4=O)c3)C2)cc1 (stereo unspecified)	2	5	26
12	COc1ccc(NC2CCCN(C(=O)c3cccc(N4CCNC4=O)c3)C2)cc1 (stereo unspecified)	-2	9	-27
13	COc1ccc(NC2CCCN(C(=O)c3cccnc3)C2)cc1 (stereo unspecified)	-3	-3	27
14	COc1cccc(/C=N/Nc2snc(SC)c2C#N)c1O	-4	8	29
15	COC(=O)c1[nH]c2ccccc2c1NC(=O)/C=C/c1ccc2c(c1)OCO2	8.4*	-4	19

entry	ALR H2O2 inh	UUG fidelity	HDAC3 inh
1	-8	-25	3
2	2	nt	2
3	nt	-2	nt
4	96*	nt	5
5	nt	7	nt
6	59	nt	-5
7	2	nt	0
8	nt	nt	-2
9	0	-3	5
10	29	-2	1
11	95*	-5	1
12	99*	-10	6
13	97*	-20	4
14	86*	nt	-1
15	-2	12	-3

The results go on:
entry	Molecule	MC4R ag barr	MC4R antag cAMP	NALP1 yeast inh
16	CCOC(=O)c1[nH]c2ccccc2c1NC(=O)c1ccc2c(c1)OCO2	1	-1	40*
17	CCOC(=O)c1oc2ccccc2c1NC(=O)c1ccc2c(c1)OCO2	9.4*	11	-24
18	CCN(CC(=O)Nc1c(C(=O)OC)[nH]c2ccccc12)c1ccc2c(c1)OCO2	0	-17	2
19	C[C@H](CO)N1C[C@H](C)[C@H](CN(C)S(=O)(=O)c2ccccc2)Oc2ncc(-c3cccc(C(=O)N(C)C)c3)cc2C1=O	nt	nt	nt
20	N#Cc1ccsc1NC(=O)CSc1ncn[nH]1	1	12	30
21	N#Cc1ccsc1NC(=O)CSc1ncnc2ccccc12	4	-5	18
22	CN(C)S(=O)(=O)c1cccc(NC(=O)CSc2ncnc3ccccc23)c1	2	13	-13
23	O=C(CSc1ncnc2ccccc12)Nc1cccc(S(=O)(=O)N2CCOCC2)c1	-2	9	5
24	C/C=C/c1ccc2c(c1)O[C@@H](CN(C)CC1CCOCC1)[C@H](C)CN([C@@H](C)CO)S2(=O)=O	nt	nt	nt
25	Nc1nc(/C=C/c2ccc(F)cc2)nc(-c2ccccc2O)n1	1	2	17
26	Nc1nc(/C=C/c2cccnc2)nc(-c2ccccc2O)n1	5	12	25
27	COc1ccccc1NC(=O)c1c[nH]c2ccccc12	-1	1	29
28	COc1ccccc1NC(=O)c1cc(=O)[nH]c2ccccc12	0	7	21

entry	ALR H2O2 inh	UUG fidelity	HDAC3 inh
16	-4	-5	-2
17	-5	-15	-8
18	nt	-4	10
19	nt	-4	nt
20	-3	-14	3
21	98*	-1	-1
22	99*	nt	-1
23	98*	nt	-3
24	nt	5	nt
25	-21	-15	-1
26	94*	nt	-9
27	-9	-2	-2
28	99*	-7	3

Another view of some results above:
nr | MC4R ag barr | MC4R antag cAMP | NALP1 yeast inh | ALR H2O2 inh | UUG fidelity | HDAC3 inh | molecule
18 | 0 | -17 | 2 | nt | -4 | 10 | CCN(CC(=O)Nc1c(C(=O)OC)[nH]c2ccccc12)c1ccc2c(c1)OCO2
20 | 1 | 12 | 30 | -3 | -14 | 3 | N#Cc1ccsc1NC(=O)CSc1ncn[nH]1

Screening data deposited in PubChem BioAssay by several laboratories.
